Measured values from patent publication US20220347267A1, “METHODS TO IMPROVE PATIENT RESPONSE TO IMMUNE CHECKPOINT INHIBITORS AND FUNCTIONAL TESTS TO PREDICT RESPONSE” (Biomarker Strategies, LLC, priority 2019, published 2022).

Tests used:
Assay type in all cases: cell-based, human
[1] = test system: various NSCLC, HNSCC, breast cancer, melanoma, colorectal cancer, and pancreatic cancer cell lines; experiment: PD-L1 western blot after modulators, summary over all samples; conditions: depending on the sample, summary of Table 3
From the text: Cell lines were acquired from ATCC, Sigma, or DSMZ. Human non-small cell lung carcinoma (NSCLC) cell lines H292 (ATCC no. CRL-1848.), H1299 (ATCC no. CRL-5803), H520 (ATCC no. CRL-5811), CALU6 (ATCC no. HTB-56), H1975 (ATCC no. CRL-5908), H460 (ATCC no. HTB-177), H2126 (ATCC no. CCL-256), H1650 (ATCC no. CRL-5883), and H2087 (ATCC no. CRL-5922) were used for this experiment along with head and neck squamous cell carcinoma (HNSCC) cell lines BHY (DSMZ ACC 404), CAL27 (ATCC no. CRL-2095), KYSE410 (Sigma), and A253 (ATCC no. HTB-41), melanoma cell lines A375 (ATCC no. CRL-1619), COL0853 (Sigma), and MM127 (Sigma) pancreatic cancer cell lines BXPC3 (ATCC no. […] Cell viability was measured using trypan blue exclusion staining in conjunction with the Countess II Automated Cell Counter (Thermo Fischer Scientific; cat. no. AMQAX1000). Measurements were made in duplicate and the average number of viable cells was recorded prior to experiments. […]
To determine the effects of the aforementioned molecules on the modulation of PD-L1, we selected various NSCLC, HNSCC, breast cancer, melanoma, colorectal cancer, and pancreatic cancer cell lines as examples. Other diseases or cell lines could be used readily as could more complex samples such as cells isolated from xenografts and clinical samples. […] Other conditions can be readily used, such as processing on automated systems such as SnapPath. […]

[2] = test system: H292 cells; experiment: PD-L1 western blot after modulators (EM and MTAs); conditions: NSCLC H292, 30 minutes, 3 hours, 24 hours
From the text: (§1) Cell lines were acquired from ATCC, Sigma, or DSMZ. Human non-small cell lung carcinoma (NSCLC) cell lines H292 (ATCC no. CRL-1848.), H1299 (ATCC no. CRL-5803), H520 (ATCC no. CRL-5811), CALU6 (ATCC no. HTB-56), H1975 (ATCC no. CRL-5908), H460 (ATCC no. HTB-177), H2126 (ATCC no. CCL-256), H1650 (ATCC no. CRL-5883), and H2087 (ATCC no. CRL-5922) were used for this experiment along with head and neck squamous cell carcinoma (HNSCC) cell lines BHY (DSMZ ACC 404), CAL27 (ATCC no. CRL-2095), KYSE410 (Sigma), and A253 (ATCC no. HTB-41), melanoma cell lines A375 (ATCC no. CRL-1619), COL0853 (Sigma), and MM127 (Sigma) pancreatic cancer cell lines BXPC3 (ATCC no. CRL-1687), colorectal cancer cell lines […], HCT116 (ATCC no. CCL-247EMT), and breast cancer cell lines BT549 (ATCC no. HTB-122), BT20 (ATCC no. HTB-19), and T47D (ATCC no. HTB-133). Cells were maintained in manufacturer-recommended conditions at 37° C. inside humidified 5% CO2 incubators. Sub-cultivation and harvesting for all cell lines were performed using Accutase (GIBCO Life Technologies; cat. no. A1110501) at 37° C. for 10 minutes. Cell viability was measured using trypan blue exclusion staining in conjunction with the Countess II Automated Cell Counter (Thermo Fischer Scientific; cat. no. AMQAX1000). Measurements were made in duplicate and the average number of viable cells was recorded prior to experiments.
(§2) Enhancer Molecule and Therapies: IFNγ, (10 ng/ml; Sigma Aldrich, cat.no 11040596001), TNFα (10 ng/ml; BD Biosciences cat. no. 554618), Osimertinib (100 ng/ml; Selleckchem cat.no. S7297), Everolimus (100 ng/ml; Selleckchem cat.no S1120), GSK458 (10 ng/ml; Selleckchem cat. no. S2658), TNFb (50 ng/ml; Sigma Aldrich cat. no.), GSK795 (1,000 ng/ml; Selleckchem cat. no. S7492), IL-12 (50 ng/ml; Sigma Aldrich SRP3073), GM-CSF (50 ng/ml; Sigma Aldrich cat. no. G5035), IL-1a (1 ng/ml; Sigma Aldrich cat. no. 12778-), IL-6 (50 ng/ml; Sigma Aldrich), IL-17 (100 ng/ml; Sigma Aldrich cat. no. SRP3080), TGFb (1 ng/ml; Sigma Aldrich cat. no. T7039), and IL-10 (50 ng/ml; Sigma Aldrich cat. no. […]
(§3) To determine the effects of the aforementioned molecules on the modulation of PD-L1, we selected various NSCLC, HNSCC, breast cancer, melanoma, colorectal cancer, and pancreatic cancer cell lines as examples. Other diseases or cell lines could be used readily as could more complex samples such as cells isolated from xenografts and clinical samples. […] Other conditions can be readily used, such as processing on automated systems such as SnapPath. […] Aliquots of protein lysates were prepared and then stored at −80° C. until protein quantification and Western blot analysis was to be conducted. […]

[3] = test system: H460 cells; experiment: PD-L1 western blot after modulators (EM and MTAs); conditions: NSCLC H460, 30 minutes, 3 hours, 24 hours
From the text: as §1, §2, §3

[4] = test system: BT549 cells; experiment: PD-L1 western blot after modulators (EM and MTAs); conditions: Breast BT549, 30 minutes, 3 hours, 24 hours
From the text: as §1, §2, §3

[5] = test system: H1650 cells; experiment: PD-L1 western blot after modulators (EM and MTAs); conditions: NSCLC H1650, 30 minutes, 3 hours, 24 hours
From the text: as §1, §2, §3

In the case of “TNFa: Recombinant human TNF-a, modulator (10 ng/ml; BD Biosciences)”, the “regulation of PD-L1 across samples” value [1] is reported as “only led to upregulation”, the “PD-L1 Response” value [2] is reported as “Up” and the “PD-L1 Response” value [3] is reported as “Up”. The “PD-L1 Response” value [4] was “Up” and the “PD-L1 Response” value [5] was “Up”.
